This is an account of results in US7060681B2, “Compositions and methods for use of bioactive agents derived from sulfated and sulfonated amino acids” (Ecole Polytechnique Federale de Lausanne (EPFL), priority 2001, dated 2006).

Chains of the proteins cited; added tags and fusions are not shown. Lines headed by an entry give the natural chain unless they say otherwise; changes in a name come on top.
UniProt P01008: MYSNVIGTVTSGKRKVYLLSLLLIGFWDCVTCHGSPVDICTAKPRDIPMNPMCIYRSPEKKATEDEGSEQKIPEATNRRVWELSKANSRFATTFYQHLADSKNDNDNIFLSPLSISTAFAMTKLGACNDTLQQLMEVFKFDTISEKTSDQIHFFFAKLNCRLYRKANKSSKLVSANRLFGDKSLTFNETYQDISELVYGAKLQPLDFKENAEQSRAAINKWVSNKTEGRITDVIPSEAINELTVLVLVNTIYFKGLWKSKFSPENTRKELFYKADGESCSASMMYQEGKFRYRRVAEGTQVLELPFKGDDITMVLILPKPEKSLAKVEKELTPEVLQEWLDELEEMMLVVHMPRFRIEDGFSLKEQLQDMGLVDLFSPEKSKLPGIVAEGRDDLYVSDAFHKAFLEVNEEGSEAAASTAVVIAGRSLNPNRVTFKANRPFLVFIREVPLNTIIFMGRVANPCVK

The target of the test is antithrombin III heparin-binding domain (Homo sapiens, UniProt P01008, C160A/N159A). The test is described as follows: Library screening with fluorescently labeled peptide representing the antithrombin III heparin-binding domain. The settings on record: in the presence of a 10 fold molar excess of heparin.

With “Ac-Ser(SO3)-Val-Phe-Val-Ser(SO3)-Ser(SO3)-Val-Val-Ser(SO3)-Ser(SO3)-PEGA”, the “Binding of ATIII heparin-binding domain peptide, second library screening (in words)” value is “strongest binding”.
